{
  "source": "PubChem BioAssay (NCI)",
  "system": "MDA-MB-468 breast",
  "experiment": "NCI anticancer screen, dose series, 48 h",
  "note": "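Method: 48-hour compound exposure of cells in 96-well plates, five concentrations, linear interpolation of endpoints. GI50 = concentration required for 50% inhibition of growth. Definition used: TGI = concentration required for complete inhibition of growth.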",
  "data": [
    {"smiles": "O=C(Cl)c1c([N+](=O)[O-])cc([N+](=O)[O-])cc1[N+](=O)[O-]", "values": [
      {"measurement": "GI50", "result": 1730, "unit": "nM"},
      {"measurement": "TGI", "result": 3600, "unit": "nM"}
    ]}
  ]
}
